Measurements reported in patent publication US12616739B2, “GLP-1 prodrugs and uses thereof” (Novo Nordisk A/S, priority 2020, dated 2026).

Test: Prodrug to drug conversion half-life in vitro, PBS pH 7.4, 37° C.
Type: physicochemical
How it was run: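 Prodrug at a 200 μM target in PBS pH 7.4 incubated at 37 °C, sampled over 2 weeks and analysed by UPLC-UV (215 nm)-MS. ln of prodrug peak area % plotted against time; first-order half-life = ln(2)/k from the slope.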

| SMILES | half-life [h] |
| --- | --- |
| CC[C@H](C)[C@H](NC(=O)[C@H](Cc1ccccc1)NC(=O)[C@H](CCC(=O)O)NC(=O)[C@H](CCCCNC(=O)COCCOCCNC(=O)COCCOCCNC(=O)CC[C@H](NC(=O)CCCCCCCCCCCCCCCCC(=O)O)C(=O)O)NC(=O)[C@H](C)NC(=O)[C@H](C)NC(=O)[C@H](CCC(N)=O)NC(=O)CNC(=O)[C@H](CCC(=O)O)NC(=O)[C@H](CC(C)C)NC(=O)[C@H](Cc1ccc(O)cc1)NC(=O)[C@H](CO)NC(=O)[C@H](CO)NC(=O)[C@@H](NC(=O)[C@H](CC(=O)O)NC(=O)[C@H](CO)NC(=O)[C@@H](NC(=O)[C@H](Cc1ccccc1)NC(=O)[C@@H](NC(=O)CNC(=O)[C@H](CCC(=O)O)NC(=O)C(C)(C)NC(=O)[C@H](Cc1c[nH]cn1)NC(=O)CN(CCNC(=O)[C@H](CCC(=O)O)NC(=O)CCCCCCCCCCCCCCCCC(=O)O)C(=O)CN)[C@@H](C)O)[C@@H](C)O)C(C)C)C(=O)N[C@@H](C)C(=O)N[C@@H](Cc1c[nH]c2ccccc12)C(=O)N[C@@H](CC(C)C)C(=O)N[C@H](C(=O)N[C@@H](CCCNC(=N)N)C(=O)NCC(=O)N[C@@H](CCCNC(=N)N)C(=O)NCC(=O)O)C(C)C [Chem. 31, Gly-N^α-2-[[(4S)-4-carboxy-2-(17-carboxyheptadecanoylamino)butanoyl]amino]ethyl-Gly-semaglutide] | 192 |
| CC[C@H](C)[C@H](NC(=O)[C@H](Cc1ccccc1)NC(=O)[C@H](CCC(=O)O)NC(=O)[C@H](CCCCNC(=O)COCCOCCNC(=O)COCCOCCNC(=O)CC[C@H](NC(=O)CCCCCCCCCCCCCCCCC(=O)O)C(=O)O)NC(=O)[C@H](C)NC(=O)[C@H](C)NC(=O)[C@H](CCC(N)=O)NC(=O)CNC(=O)[C@H](CCC(=O)O)NC(=O)[C@H](CC(C)C)NC(=O)[C@H](Cc1ccc(O)cc1)NC(=O)[C@H](CO)NC(=O)[C@H](CO)NC(=O)[C@@H](NC(=O)[C@H](CC(=O)O)NC(=O)[C@H](CO)NC(=O)[C@@H](NC(=O)[C@H](Cc1ccccc1)NC(=O)[C@@H](NC(=O)CNC(=O)[C@H](CCC(=O)O)NC(=O)C(C)(C)NC(=O)[C@H](Cc1c[nH]cn1)NC(=O)CN(CCCNC(=O)CC[C@H](NC(=O)CCCCCCCCCCCCCCC(=O)O)C(=O)O)C(=O)CN)[C@@H](C)O)[C@@H](C)O)C(C)C)C(=O)N[C@@H](C)C(=O)N[C@@H](Cc1c[nH]c2ccccc12)C(=O)N[C@@H](CC(C)C)C(=O)N[C@H](C(=O)N[C@@H](CCCNC(=N)N)C(=O)NCC(=O)N[C@@H](CCCNC(=N)N)C(=O)NCC(=O)O)C(C)C [Chem. 32, Gly-N^α-3-[[(4S)-4-carboxy-4-(15-carboxypentadecanoylamino)butanoyl]amino]propyl-Gly-semaglutide] | 86.4 |
| CC[C@H](C)[C@H](NC(=O)[C@H](Cc1ccccc1)NC(=O)[C@H](CCC(=O)O)NC(=O)[C@H](CCCCNC(=O)COCCOCCNC(=O)COCCOCCNC(=O)CC[C@H](NC(=O)CCCCCCCCCCCCCCCCC(=O)O)C(=O)O)NC(=O)[C@H](C)NC(=O)[C@H](C)NC(=O)[C@H](CCC(N)=O)NC(=O)CNC(=O)[C@H](CCC(=O)O)NC(=O)[C@H](CC(C)C)NC(=O)[C@H](Cc1ccc(O)cc1)NC(=O)[C@H](CO)NC(=O)[C@H](CO)NC(=O)[C@@H](NC(=O)[C@H](CC(=O)O)NC(=O)[C@H](CO)NC(=O)[C@@H](NC(=O)[C@H](Cc1ccccc1)NC(=O)[C@@H](NC(=O)CNC(=O)[C@H](CCC(=O)O)NC(=O)C(C)(C)NC(=O)[C@H](Cc1c[nH]cn1)NC(=O)CN(CCCCCNC(=O)CC[C@H](NC(=O)CCCCCCCCCCCCCCC(=O)O)C(=O)O)C(=O)CN)[C@@H](C)O)[C@@H](C)O)C(C)C)C(=O)N[C@@H](C)C(=O)N[C@@H](Cc1c[nH]c2ccccc12)C(=O)N[C@@H](CC(C)C)C(=O)N[C@H](C(=O)N[C@@H](CCCNC(=N)N)C(=O)NCC(=O)N[C@@H](CCCNC(=N)N)C(=O)NCC(=O)O)C(C)C [Chem. 33, Gly-N^α-5-[[(4S)-4-carboxy-4-(15-carboxypentadecanoylamino)butanoyl]amino]pentyl-Gly-semaglutide] | 91.2 |
| CC[C@H](C)[C@H](NC(=O)[C@H](Cc1ccccc1)NC(=O)[C@H](CCC(=O)O)NC(=O)[C@H](CCCCNC(=O)COCCOCCNC(=O)COCCOCCNC(=O)CC[C@H](NC(=O)CCCCCCCCCCCCCCCCC(=O)O)C(=O)O)NC(=O)[C@H](C)NC(=O)[C@H](C)NC(=O)[C@H](CCC(N)=O)NC(=O)CNC(=O)[C@H](CCC(=O)O)NC(=O)[C@H](CC(C)C)NC(=O)[C@H](Cc1ccc(O)cc1)NC(=O)[C@H](CO)NC(=O)[C@H](CO)NC(=O)[C@@H](NC(=O)[C@H](CC(=O)O)NC(=O)[C@H](CO)NC(=O)[C@@H](NC(=O)[C@H](Cc1ccccc1)NC(=O)[C@@H](NC(=O)CNC(=O)[C@H](CCC(=O)O)NC(=O)C(C)(C)NC(=O)[C@H](Cc1c[nH]cn1)NC(=O)CN(CCCCCCNC(=O)CC[C@H](NC(=O)CCCCCCCCCCCCCCC(=O)O)C(=O)O)C(=O)CN)[C@@H](C)O)[C@@H](C)O)C(C)C)C(=O)N[C@@H](C)C(=O)N[C@@H](Cc1c[nH]c2ccccc12)C(=O)N[C@@H](CC(C)C)C(=O)N[C@H](C(=O)N[C@@H](CCCNC(=N)N)C(=O)NCC(=O)N[C@@H](CCCNC(=N)N)C(=O)NCC(=O)O)C(C)C [Chem. 34, Gly-N^α-6-[[(4S)-4-carboxy-4-(15-carboxypentadecanoylamino)butanoyl]amino]hexyl-Gly-semaglutide] | 88.8 |
| CC[C@H](C)[C@H](NC(=O)[C@H](Cc1ccccc1)NC(=O)[C@H](CCC(=O)O)NC(=O)[C@H](CCCCNC(=O)COCCOCCNC(=O)COCCOCCNC(=O)CC[C@H](NC(=O)CCCCCCCCCCCCCCCCC(=O)O)C(=O)O)NC(=O)[C@H](C)NC(=O)[C@H](C)NC(=O)[C@H](CCC(N)=O)NC(=O)CNC(=O)[C@H](CCC(=O)O)NC(=O)[C@H](CC(C)C)NC(=O)[C@H](Cc1ccc(O)cc1)NC(=O)[C@H](CO)NC(=O)[C@H](CO)NC(=O)[C@@H](NC(=O)[C@H](CC(=O)O)NC(=O)[C@H](CO)NC(=O)[C@@H](NC(=O)[C@H](Cc1ccccc1)NC(=O)[C@@H](NC(=O)CNC(=O)[C@H](CCC(=O)O)NC(=O)C(C)(C)NC(=O)[C@H](Cc1c[nH]cn1)NC(=O)CN(CCCCNC(=O)CC[C@H](NC(=O)CCCCCCCCCCCCCCC(=O)O)C(=O)O)C(=O)[C@@H](N)CCCNC(=N)N)[C@@H](C)O)[C@@H](C)O)C(C)C)C(=O)N[C@@H](C)C(=O)N[C@@H](Cc1c[nH]c2ccccc12)C(=O)N[C@@H](CC(C)C)C(=O)N[C@H](C(=O)N[C@@H](CCCNC(=N)N)C(=O)NCC(=O)N[C@@H](CCCNC(=N)N)C(=O)NCC(=O)O)C(C)C [Chem. 35, Arg-N^α-4-[[(4S)-4-carboxy-4-(15-carboxypentadecanoylamino)butanoyl]amino]butyl-Gly-semaglutide, reference compound] | 16.8 |
| CC[C@H](C)[C@H](NC(=O)[C@H](Cc1ccccc1)NC(=O)[C@H](CCC(=O)O)NC(=O)[C@H](CCCCNC(=O)COCCOCCNC(=O)COCCOCCNC(=O)CC[C@H](NC(=O)CCCCCCCCCCCCCCCCC(=O)O)C(=O)O)NC(=O)[C@H](C)NC(=O)[C@H](C)NC(=O)[C@H](CCC(N)=O)NC(=O)CNC(=O)[C@H](CCC(=O)O)NC(=O)[C@H](CC(C)C)NC(=O)[C@H](Cc1ccc(O)cc1)NC(=O)[C@H](CO)NC(=O)[C@H](CO)NC(=O)[C@@H](NC(=O)[C@H](CC(=O)O)NC(=O)[C@H](CO)NC(=O)[C@@H](NC(=O)[C@H](Cc1ccccc1)NC(=O)[C@@H](NC(=O)CNC(=O)[C@H](CCC(=O)O)NC(=O)C(C)(C)NC(=O)[C@H](Cc1c[nH]cn1)NC(=O)CN(CCN)C(=O)CN)[C@@H](C)O)[C@@H](C)O)C(C)C)C(=O)N[C@@H](C)C(=O)N[C@@H](Cc1c[nH]c2ccccc12)C(=O)N[C@@H](CC(C)C)C(=O)N[C@H](C(=O)N[C@@H](CCCNC(=N)N)C(=O)NCC(=O)N[C@@H](CCCNC(=N)N)C(=O)NCC(=O)O)C(C)C [Chem. 36, Gly-N^α-2-(aminoethyl)-Gly-semaglutide, reference compound] | 578 |
